Results: patent publication US20260102425A1 (Allergan, Inc., priority 2018, published 2026)
Like-named read-outs stand apart in the source and are kept apart here.

How the values were obtained:
rabbits [1] = conditions: 250 ul, not washed out, FIG. 7; for corneal staining: at 24 hrs
rabbits [2] = conditions: not washed out, over 24 hours, FIG. 8

Substance: sodium chlorite
- punctate corneal staining (mean NEI grade 0 to 3) (rabbits [1]; sodium chlorite 8000 ppm activated with pH 3 buffer, at 24 hours, n=8): 1.0±1.1
- corneal staining (rabbits [1]; sodium chlorite 8000 ppm activated with pH 4 buffer, n=8): did not show any corneal staining
- corneal staining (rabbits [1]; sodium chlorite 8000 ppm activated with pH 5 buffer, n=4): did not show any corneal staining
- visual disturbance over a 24-hour period compared with povidone-iodine 5% eye wash protocol (Dutch-Belted rabbits; sodium chlorite 1600 ppm eye drop, rabbits with normal vision): less visual disturbance
- significance of peak visual deficit, study eye compared with non-study eye (Dutch-Belted rabbits; sodium chlorite 1600 ppm, at 1 hour, p=0.06, paired Student's t test): not statistically significant
- ocular surface hyperemic response (rabbits [2]; 8000 ppm sodium chlorite activated with buffer greater than or equal to pH 3, 250 ul): elicited no response
- ocular surface hyperemic response (rabbits [2]; 8000 ppm sodium chlorite activated with pH 2 buffer, 250 ul): trace response
